{"source": "patent US20060252670A1", "about": "“Method of reducing drug-induced adverse side effects in a patient” (Intercept Pharmaceuticals Inc., priority 2004, published 2006)", "origin": "cited, not measured here", "details": "cited from earlier work", "note": "Where two headings read alike, the source gives them in different places."}
{"substance": "insulin", "values": [{"measurement": "incidence of edema", "setting": "insulin alone (Raskin et al. 2001)", "result": 4.7, "unit": "%"}, {"measurement": "incidence of edema", "setting": "insulin alone (Rubin et al. 1999)", "result": 7.0, "unit": "%"}]}
